Source: patent US5026897A, “Carbaphens: aprophen analogs that are binary antidotes for organophosphate poisoning” (dated 1991)

The chains behind the UniProt entries cited, without tags or fusion partners. Residues count along the entry.
UniProt P06276, 29-602 limits assumed: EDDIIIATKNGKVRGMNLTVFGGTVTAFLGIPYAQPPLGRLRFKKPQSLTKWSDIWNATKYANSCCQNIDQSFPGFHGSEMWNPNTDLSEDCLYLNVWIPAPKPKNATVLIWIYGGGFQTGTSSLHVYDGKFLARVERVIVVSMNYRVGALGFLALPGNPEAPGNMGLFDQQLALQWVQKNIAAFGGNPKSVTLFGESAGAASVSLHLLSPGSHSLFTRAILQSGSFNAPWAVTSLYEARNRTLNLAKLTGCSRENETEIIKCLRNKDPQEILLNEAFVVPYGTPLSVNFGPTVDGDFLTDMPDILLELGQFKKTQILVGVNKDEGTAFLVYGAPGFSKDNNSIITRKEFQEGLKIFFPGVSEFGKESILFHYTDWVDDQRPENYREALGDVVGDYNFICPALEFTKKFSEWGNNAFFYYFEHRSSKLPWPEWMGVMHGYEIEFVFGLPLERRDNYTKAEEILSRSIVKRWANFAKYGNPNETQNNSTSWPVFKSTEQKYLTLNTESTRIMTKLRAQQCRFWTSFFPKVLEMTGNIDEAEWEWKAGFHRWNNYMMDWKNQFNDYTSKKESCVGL
UniProt P08483, whole entry, looked up: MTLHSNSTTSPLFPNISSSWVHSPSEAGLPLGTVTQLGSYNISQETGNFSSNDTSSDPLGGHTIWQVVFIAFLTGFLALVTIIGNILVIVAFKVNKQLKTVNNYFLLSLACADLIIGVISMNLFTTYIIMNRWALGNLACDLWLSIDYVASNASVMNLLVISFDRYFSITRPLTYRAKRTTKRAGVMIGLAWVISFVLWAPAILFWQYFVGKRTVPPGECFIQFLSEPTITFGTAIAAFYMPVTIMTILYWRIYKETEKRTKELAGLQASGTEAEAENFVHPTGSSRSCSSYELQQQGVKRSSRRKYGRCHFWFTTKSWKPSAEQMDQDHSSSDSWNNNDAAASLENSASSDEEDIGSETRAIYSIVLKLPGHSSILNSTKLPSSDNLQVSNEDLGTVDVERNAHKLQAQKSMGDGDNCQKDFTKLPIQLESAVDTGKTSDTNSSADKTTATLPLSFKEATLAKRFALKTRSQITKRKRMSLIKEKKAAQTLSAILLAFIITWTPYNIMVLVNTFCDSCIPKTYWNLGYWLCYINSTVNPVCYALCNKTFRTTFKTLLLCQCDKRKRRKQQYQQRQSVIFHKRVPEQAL
UniProt H0W1Z3, 1-590: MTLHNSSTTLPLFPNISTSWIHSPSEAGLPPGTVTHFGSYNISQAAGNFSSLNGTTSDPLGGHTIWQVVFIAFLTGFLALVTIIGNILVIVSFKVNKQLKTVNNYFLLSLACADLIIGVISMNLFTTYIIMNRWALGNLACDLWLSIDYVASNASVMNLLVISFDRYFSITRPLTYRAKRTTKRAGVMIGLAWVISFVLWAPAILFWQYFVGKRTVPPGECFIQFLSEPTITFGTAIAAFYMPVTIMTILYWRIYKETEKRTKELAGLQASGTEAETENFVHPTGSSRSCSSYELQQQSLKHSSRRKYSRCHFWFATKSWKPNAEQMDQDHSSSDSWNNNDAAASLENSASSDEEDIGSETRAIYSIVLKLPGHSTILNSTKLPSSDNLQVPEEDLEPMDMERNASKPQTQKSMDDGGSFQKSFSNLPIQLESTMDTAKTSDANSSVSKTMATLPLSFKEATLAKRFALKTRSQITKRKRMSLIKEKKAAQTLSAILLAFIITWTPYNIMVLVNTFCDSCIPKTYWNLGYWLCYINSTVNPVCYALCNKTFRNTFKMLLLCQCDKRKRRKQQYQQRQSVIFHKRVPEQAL

Key:
[1] = target: T1, human serum butyrylcholinesterase (Homo sapiens, UniProt P06276); assay: Inhibition (carbamylation) kinetics of human serum butyrylcholinesterase; conditions: for potency relative to physostigmine and pyridostigmine: human butyrylcholinesterase
[2] = target: pancreatic acinar cells (M2 receptor subtype) (Rattus norvegicus, UniProt P08483); assay: Inhibition of carbachol-induced α-amylase release from pancreatic acinar cells
[3] = system: muscarinic receptor, predominantly the M1 receptor subtype (cerebral cortex); assay: [^3 H]NMS binding to cerebral cortex
muscarinic receptors = assay: Overall antimuscarinic activity and muscarinic subtype specificity (Table I comparison); conditions: for muscarinic subtype specificity: comparison of inhibition constants
[4] = target: muscarinic receptor (ileum, predominantly the M2 receptor subtype) (Cavia porcellus, UniProt H0W1Z3); assay: Acetylcholine-induced contraction of guinea pig ileum (inhibition); conditions: for pA2, inhibition of guinea pig ileum contraction / Kb: acetylcholine-induced contraction; for pA2, inhibition of guinea pig ileum contraction: mean of four to five independent experiments ± SEM; for Kb: read-out: KB, inhibition of guinea pig ileum contraction, from Schild plot
[5] = system: 7-(methylethoxyphosphinyloxy)-1-methylquinolinium iodide (MEPQ) poisoning; assay: Protection of pretreated guinea pigs against MEPQ challenge
[6] = system: butyrylcholinesterase over acetylcholinesterase; conditions: steady-state kinetics; cited from earlier work
[7] = target: T1, human serum butyrylcholinesterase; conditions: Aarbakke, J. et al; cited from earlier work
[8] = five pretreated animals, 4 LD50 of MEPQ

## CCN(CC)CCOC(=O)C(C)(c1ccc(OC(=O)N(C)C)cc1)c1ccc(OC(=O)N(C)C)cc1
[1]; time-dependent
  ability to carbamylate / inhibition of human butyrylcholinesterase: potent ability to carbamylate butyrylcholinesterase
[2]; 10^-5 M carbachol, mean of four to five independent experiments ± SEM
  Ki, inhibition of pancreatic acini α-amylase release: not active
[3]; 2 nM [^3 H]NMS, 25° C., mean of four to five independent experiments ± SEM
  Ki, inhibition of cerebral cortex [^3 H]NMS binding: marginal activity
Muscarinic receptors; Table I
  muscarinic subtype specificity: do not exhibit any muscarinic subtype specificity
Muscarinic receptors; overall, Table I
  antimuscarinic activity: inactive
Muscarinic receptors; overall, Table I, listed as bisdimethyl carbaphen (Compound 5)
  antimuscarinic activity: lack of activity
[4]
  pA2, inhibition of guinea pig ileum contraction: not active

## CCN(CC)CCOC(=O)C(C)(c1ccc(O)cc1)c1ccc(OC(=O)N(C)C)cc1 (centres unmarked)
[1]
  potency relative to physostigmine and pyridostigmine: high potencies on the order of those of physostigmine and pyridostigmine
Muscarinic receptors; Table I
  muscarinic subtype specificity: do not exhibit any muscarinic subtype specificity
Muscarinic receptors; comparison with Compound 15
  antimuscarinic activities relative to dimethyl carbaphen: one to two orders of magnitude lower
Muscarinic receptors; overall, Table I
  antimuscarinic activity: poor antimuscarinic potency
[4]
  pA2, inhibition of guinea pig ileum contraction: 5.5 ± 0.2
  Kb: 3200 nM

## CCN(CC)CCOC(=O)C(C)(c1ccc(O)cc1)c1ccc(O)cc1
Muscarinic receptors; overall, Table I
  antimuscarinic activity: poor antimuscarinic potency
Muscarinic receptors; read-out: antimuscarinic inhibition constants, region, overall, Table I
  Ki: 1000 nM
[4]
  pA2, inhibition of guinea pig ileum contraction: 5.7 ± 0.1
  Kb: 2000 nM

## CCN(CC)CCOC(=O)C(C)(c1ccccc1)c1ccc(OC(=O)NC)cc1 (centres unmarked)
[1]
  potency relative to physostigmine and pyridostigmine: high potencies on the order of those of physostigmine and pyridostigmine
[5]; 30 min pretreatment with dose sufficient to inhibit cholinesterase in vivo by about 60%
  survival of challenge of 2 LD50 of MEPQ: can survive a challenge of 2 LD50 of MEPQ
[5]; [8]
  animals that died after about 15 min: two
  animals that died after about 45 min: one
  animals that survived, alive at the end of the day: two
Muscarinic receptors; Table I
  muscarinic subtype specificity: more specificity for the pancreatic M2 receptor subtype over the M1 subtype of the cortex
Muscarinic receptors; overall, Table I, listed as Compound 16
  antimuscarinic activity: potent antimuscarinic activity
Muscarinic receptors; overall, Table I, listed as monomethyl carbaphen
  antimuscarinic activity: very similar to that of aprophen
Muscarinic receptors; overall, Table I, listed as monomethyl carbaphen (16)
  antimuscarinic activity: most potent antimuscarinic analog
Muscarinic receptors; overall, Table I, listed as monomethyl carbaphen (Compound 16)
  antimuscarinic activity: almost the same anti-muscarinic profile as the known compound aprophen
[4]
  pA2, inhibition of guinea pig ileum contraction: 7.3 ± 0.1
  Kb: 50 nM
[4]; listed as monomethyl carbaphen (16)
  pA2, inhibition of guinea pig ileum contraction: 7.3±0.1

## CCN(CC)CCOC(=O)C(C)(c1ccccc1)c1ccccc1
[6]
  preferential inhibition of butyrylcholinesterase over acetylcholinesterase: preferentially inhibit butyrylcholinesterase over acetylcholinesterase
[7]
  hydrolysis by human serum butyrylcholinesterase: not subject to hydrolysis by human serum butyrylcholinesterase

## CCN(CC)CCOC(=O)C(C)(c1ccccc1)c1ccc(O)cc1 (centres unmarked)
Muscarinic receptors; overall, Table I, listed as Compound 14
  antimuscarinic activity: potent antimuscarinic activity
Muscarinic receptors; overall, Table I, listed as hydroxy aprophen (Compound 14)
  antimuscarinic activity: potent anti-muscarinic drug
Muscarinic receptors; overall, Table I, listed as hydroxy aprophen, Compound 14
  antimuscarinic activity: almost as potent an antimuscarinic as monomethyl carbaphen
Muscarinic receptors; ratio of Ki values
  preference for the M2 subtype of the pancreas over the M1 subtype of the cerebral cortex: about 18 fold
[4]
  pA2, inhibition of guinea pig ileum contraction: 7.2 ± 0.3
  Kb: 70 nM

## CCN(CC)CCOC(=O)C(C)(c1ccccc1)c1ccc(OC(=O)N(C)C)cc1 (centres unmarked)
[1]
  potency relative to physostigmine and pyridostigmine: high potencies on the order of those of physostigmine and pyridostigmine
[2]; comparison with Compound 16
  inhibition of α-amylase release relative to monomethyl carbaphen: one order of magnitude lower
[3]; comparison with Compound 16
  inhibition of [^3 H]NMS binding relative to monomethyl carbaphen: one order of magnitude lower
Muscarinic receptors; Table I
  muscarinic subtype specificity: do not exhibit any muscarinic subtype specificity
Muscarinic receptors; overall, Table I, listed as Compound 15
  antimuscarinic activity: potent antimuscarinic activity
Muscarinic receptors; overall, Table I, listed as dimethyl carbaphen (Compound 15)
  antimuscarinic activity: almost the same anti-muscarinic profile as the known compound aprophen
[4]
  pA2, inhibition of guinea pig ileum contraction: 7.1 ± 0.1
  Kb: 83 nM
[4]; comparison with Compound 16
  pA2 for inhibition of ileum contraction relative to monomethyl carbaphen: about the same as that of monomethyl carbahen
